## Ab-14 light chain CDR variants: yeast mating affinities

Data: MIT Lincoln Laboratory AlphaSeq set, Engelhart et al. 2022, doi:10.1038/s41597-022-01779-4, as distributed in FLAb.

The target is the same throughout: PDVDLGDISGINAS, from the HR2 region of SARS-CoV-2 spike.

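Phage display of a naive human antibody library on the peptide gave the parent. In library AAYL50, one, two or three CDR residues were substituted; doubles and triples were drawn at random. AlphaSeq pools MATa yeast showing the antibodies with MATalpha yeast showing the peptide. After mating in shaken culture at 30 °C for 16 h, diploids were selected and their barcode pairs sequenced. A regression on co-assayed BCL2-family reference pairs converts the normalised counts of each replicate to an apparent Kd. Mating was done three times.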

Ab-14 is the parent antibody, in scFv form: VH, then three GGGGS repeats, then VL. The heavy chain is unchanged in all variants.
VH: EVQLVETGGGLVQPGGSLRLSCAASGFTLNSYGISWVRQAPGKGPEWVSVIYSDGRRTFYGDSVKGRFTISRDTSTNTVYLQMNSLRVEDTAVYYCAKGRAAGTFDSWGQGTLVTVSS
VL: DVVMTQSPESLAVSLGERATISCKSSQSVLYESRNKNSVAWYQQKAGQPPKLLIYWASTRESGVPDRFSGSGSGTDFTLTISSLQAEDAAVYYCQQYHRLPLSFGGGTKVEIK

Each variant is given by its three light chain CDRs, as the data file delimits them; those of the parent are KSSQSVLYESRNKNSVA, WASTRES, QQYHRLPLS.
This list gathers variants with a substitution at S25 (VL, numbered from residue 1).
The read-out is the apparent dissociation constant on a log10 scale (nM): the lower, the stronger.
The mean shown is taken over the replicates in which the pair was detected.
A pair that was not seen in any replicate is written "no signal"; this usually means weak binding, but a binder can also be missed.

- KDSQSVLYESRNKNSVA | WASHRES | RQYHRLPLS -> 1.61 (3 of 3 replicates)
- KDPQSVLYESRNKNSVI | WASTRES | QQYHRLPLS -> 4.02 (2 of 3 replicates)
- KWSQSVLYESRNKNSVA | WASTRES | QQFHRLPLS -> 0.86 (3 of 3 replicates)
- QESQSVLYESRNKNSVA | WASTRES | QQYHRLPLI -> 1.31 (3 of 3 replicates)
- KKSTSVLYESRNKNSVA | WASERES | QQYHRLPLS -> no signal (0 of 3 replicates)
- KWSQSVLYESRNKNSVA | WASTRES | QQYHRLCLS -> 1.77 (3 of 3 replicates)
- KPSQSVLYESRFKNAVA | WASTRES | QQYHRLPLS -> 3.61 (1 of 3 replicates)
- KNSQSVLYESRNHNSVA | WASTRES | QQYHCLPLS -> 3.95 (1 of 3 replicates)
- KQSQSVLYESRNKNSCA | WASTRYS | QQYHRLPLS -> no signal (0 of 3 replicates)
- KISQSVLYESRNKNSVA | WASTRED | QQQHRLPLS -> 5.67 (2 of 3 replicates)
- KESQSVLYEQRNKNSVA | WASTRES | GQYHRLPLS -> 4.35 (1 of 3 replicates)
- KDSQSVLDESRNKNSVA | WASTRES | QQYHRLPLW -> 1.48 (3 of 3 replicates)
- KNSQSVLYEPRNKNSVA | WASTRES | QQYHRKPLS -> 4.19 (1 of 3 replicates)
- KCSQSVLYESRNKNSPA | WAVTRES | QQYHRLPLS -> no signal (0 of 3 replicates)
- KHSQSVLYESRNKNSVA | WASTRES | QQYHRLCLS -> 2.30 (3 of 3 replicates)
- KHSQSVPYESRNKNSVD | WASTRES | QQYHRLPLS -> no signal (0 of 3 replicates)
- KCSQSVLYESRNKVSMA | WASTRES | QQYHRLPLS -> no signal (0 of 3 replicates)
- KASQSVLYESRGKNSVA | WASTRES | QQYHRLPLS -> 0.81 (3 of 3 replicates)
- KWKQSVDYESRNKNSVA | WASTRES | QQYHRLPLS -> no signal (0 of 3 replicates)
- KMSQSVLYESRNKNSVA | WASTRES | QQYHRLMLP -> 1.51 (3 of 3 replicates)
- KNSQSVLYESRNKNSVA | WAITKES | QQYHRLPLS -> no signal (0 of 3 replicates)
- KISQSVLYESRNKNSVA | WASTRES | QQYHRLPQR -> no signal (0 of 3 replicates)
- KESFSVLYESRNKNSVA | WASTRES | QQYHRLPLQ -> 5.27 (1 of 3 replicates)
- DCMQSVLYESRNKNSVA | WASTRES | QQYHRLPLS -> 2.99 (3 of 3 replicates)
- HLSQSVLYESRNKNSVA | WASTRES | VQYHRLPLS -> 1.70 (3 of 3 replicates)
- KHSQPVLYDSRNKNSVA | WASTRES | QQYHRLPLS -> 0.96 (3 of 3 replicates)
- KDSQSVLYESRNKNSVA | WISTRES | QQVHRLPLS -> 3.45 (3 of 3 replicates)
- KASQSVLYESRNKNSVA | WASTRFT | QQYHRLPLS -> no signal (0 of 3 replicates)
- KHSQSVLYESRNKNSVR | WACTRES | QQYHRLPLS -> 3.09 (1 of 3 replicates)
- KMSQSHIYESRNKNSVA | WASTRES | QQYHRLPLS -> 0.05 (3 of 3 replicates)
- KASQSVLYEIRNKNSVA | WASHRES | QQYHRLPLS -> 2.76 (3 of 3 replicates)
- KESQSVLYESRNKVSVA | WASTVES | QQYHRLPLS -> 3.17 (1 of 3 replicates)

As a blank, each scFv also met three strains without target: over library AAYL50, 18% of these pairings were detected, typically at 4.19 and seldom below 2.99.
For reference, the parent read 0.65 as the reference entry and 1.68 as a member of this library.